# “Also recorded” adds a separate entry of the source.
# Key:
# [1] = Solubility of vanadate in tank water; format: physicochemical
# rats = conditions: oral, 15 μM in drinking water; cited from earlier work
substance,measurement,setting,value
sodium orthovanadate,solubility in tank water,[1],readily soluble in tank water
same,toxicity in rats,rats,did not appear to be toxic; also recorded: no evidence that vanadate produced any irreversible changes

# From patent US5593678A, “Protection of teleost fish” (University of Georgia Research Foundation, priority 1994, dated 1997)
